The source of these data is patent US20080201790A1 (published 2008).

Test [1] addresses T1, C4Raf (amino terminus of Raf-1, encoded by p-C4Raf, expressed in COS cells).
T1 construct: domain: amino terminus of Raf-1
Briefly: GST agarose pull-down from COS cell lysate, anti-Raf immunoblot.

The target of test [2] is T2, MEKK1 (protein encoded by p-MEKK1, transiently expressed in COS cells) (mouse, UniProt P53349 822-1493, limits assumed).
T2 construct: Full-length MEKK1 in COS cell lysate; also called holoMEKK1; MEK kinase 1
T2 sequence: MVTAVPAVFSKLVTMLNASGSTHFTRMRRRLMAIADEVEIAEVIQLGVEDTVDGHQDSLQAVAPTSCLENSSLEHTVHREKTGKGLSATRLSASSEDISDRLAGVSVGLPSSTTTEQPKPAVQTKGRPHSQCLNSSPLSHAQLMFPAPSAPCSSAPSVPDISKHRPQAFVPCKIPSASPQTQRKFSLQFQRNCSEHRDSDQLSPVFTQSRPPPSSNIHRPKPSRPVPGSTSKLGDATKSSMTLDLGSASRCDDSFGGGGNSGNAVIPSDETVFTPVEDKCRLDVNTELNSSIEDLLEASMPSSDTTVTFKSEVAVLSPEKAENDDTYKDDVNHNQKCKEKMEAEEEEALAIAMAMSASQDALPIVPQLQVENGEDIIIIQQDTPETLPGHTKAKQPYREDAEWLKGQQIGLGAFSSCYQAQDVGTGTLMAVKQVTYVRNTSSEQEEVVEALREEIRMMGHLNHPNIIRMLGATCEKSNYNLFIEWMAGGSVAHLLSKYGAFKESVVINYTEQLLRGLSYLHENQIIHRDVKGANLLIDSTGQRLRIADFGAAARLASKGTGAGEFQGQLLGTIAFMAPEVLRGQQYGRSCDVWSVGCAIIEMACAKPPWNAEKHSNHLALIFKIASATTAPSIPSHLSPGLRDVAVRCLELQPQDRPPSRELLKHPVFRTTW
As to the kind of experiment: GST agarose pull-down from COS cell lysate, anti-MEKK immunoblot. For orientation: In western blotting, separated proteins are transferred to a membrane and probed.

B1: GST agarose (control) (other, UniProt P08515 1-218, looked up)
chain: MSPILGYWKIKGLVQPTRLLLEYLEEKYEEHLYERDEGDKWRNKKFELGLEFPNLPYYIDGDVKLTQSMAIIRYIADKHNMLGGCPKERAEISMLEGAVLDIRYGVSRIAYSKDFETLKVDFLSKLPEMLKMFEDRLCHKTYLNGDHVTHPDFMLYDALDVVLYMDPMCLDAFPKLVCFKKRIEAIPQIDKYLKSSKYIAWPLQGWQATFGGGDHPPK
notes: Negative control for the Ras pull-downs
Consider B1, for which the binding result in test [1] and in test [2] was “no binding” in each case.
